Earlier results on one compound are cited in patent publication US7678819B2.

Chains of the proteins cited; added tags and fusions are not shown. Residues count along the entry.
UniProt P05067, 672-711 limits assumed: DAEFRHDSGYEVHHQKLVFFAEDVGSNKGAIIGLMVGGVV
UniProt P05067, 672-713 limits assumed: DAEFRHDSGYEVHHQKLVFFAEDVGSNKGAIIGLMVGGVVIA

In the series the target is AD cortical homogenates (Homo sapiens, UniProt P05067). The conditions noted are these: tested as the radiolabelled form.

On to `CNc1ccc(/C=C/c2ccc(O)cc2)cc1`, for which the binding capacity is 14-45 pmol/mg protein.
